Results on one compound are retold here after patent publication US5604245A, “Use of 4-amino-1-(2-pyridyl)piperidines for the preparation of a medicament for the treatment of conditions deriving from disorders of the serotoninergic systems mediated by 5-HT3 receptors” (priority 1991, dated 1997).

The chains behind the UniProt entries cited, without tags or fusion partners. Residues count along the entry.
UniProt P35563, 24-483: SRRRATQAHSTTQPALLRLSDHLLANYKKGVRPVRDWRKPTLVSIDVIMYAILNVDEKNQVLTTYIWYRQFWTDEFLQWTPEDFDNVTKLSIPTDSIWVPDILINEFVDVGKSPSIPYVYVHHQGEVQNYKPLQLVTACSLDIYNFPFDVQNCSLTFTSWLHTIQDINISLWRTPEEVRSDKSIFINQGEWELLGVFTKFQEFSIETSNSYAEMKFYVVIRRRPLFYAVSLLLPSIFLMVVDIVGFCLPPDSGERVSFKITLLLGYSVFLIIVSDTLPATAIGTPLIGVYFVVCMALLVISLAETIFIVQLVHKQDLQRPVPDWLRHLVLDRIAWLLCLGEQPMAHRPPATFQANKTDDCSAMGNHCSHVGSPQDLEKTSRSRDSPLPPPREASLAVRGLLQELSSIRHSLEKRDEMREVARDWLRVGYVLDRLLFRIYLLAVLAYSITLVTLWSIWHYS

The structures appear in SMILES notation.

For this assay, the target named is 5-HT3 receptors (Rattus norvegicus, UniProt P35563). Put plainly: biochemical. It is filed as binding. Set-up: the cortical tissue from 4 animals was homogenized in 20 volumes of HEPES; from tissue; host or cells: cerebral cortical membranes of male rats (about 200 g).

Usually Ki stands for a dissociation constant, usually derived from enzyme kinetics or from competition with a known ligand. A low value points to higher affinity. Take `NCCc1c[nH]c2ccc(O)cc12` [serotonin]: the Ki was determined as 1.2 µM.
